We go through 10 compounds from ChEMBL document CHEMBL1135455, “3-Aminopyrrolidinone farnesyltransferase inhibitors: design of macrocyclic compounds with improved pharmacokinetics and excellent cell potency” (J Med Chem, 2002).

Sequences of proteins named here, by UniProt entry; tags and fusion partners are left off. A change or cut given only in a name is not applied to a line headed by its entry.
UniProt P53609, whole entry, looked up: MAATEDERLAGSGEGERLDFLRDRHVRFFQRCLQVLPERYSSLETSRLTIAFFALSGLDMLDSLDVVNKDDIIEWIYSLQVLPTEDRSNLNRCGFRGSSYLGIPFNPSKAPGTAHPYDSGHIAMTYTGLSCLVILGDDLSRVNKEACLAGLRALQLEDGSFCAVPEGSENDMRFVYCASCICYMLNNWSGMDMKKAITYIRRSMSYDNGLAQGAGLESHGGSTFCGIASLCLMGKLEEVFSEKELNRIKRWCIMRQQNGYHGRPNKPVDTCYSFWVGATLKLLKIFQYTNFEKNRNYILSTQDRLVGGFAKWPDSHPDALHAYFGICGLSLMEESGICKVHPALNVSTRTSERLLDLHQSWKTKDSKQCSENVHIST
UniProt Q12809: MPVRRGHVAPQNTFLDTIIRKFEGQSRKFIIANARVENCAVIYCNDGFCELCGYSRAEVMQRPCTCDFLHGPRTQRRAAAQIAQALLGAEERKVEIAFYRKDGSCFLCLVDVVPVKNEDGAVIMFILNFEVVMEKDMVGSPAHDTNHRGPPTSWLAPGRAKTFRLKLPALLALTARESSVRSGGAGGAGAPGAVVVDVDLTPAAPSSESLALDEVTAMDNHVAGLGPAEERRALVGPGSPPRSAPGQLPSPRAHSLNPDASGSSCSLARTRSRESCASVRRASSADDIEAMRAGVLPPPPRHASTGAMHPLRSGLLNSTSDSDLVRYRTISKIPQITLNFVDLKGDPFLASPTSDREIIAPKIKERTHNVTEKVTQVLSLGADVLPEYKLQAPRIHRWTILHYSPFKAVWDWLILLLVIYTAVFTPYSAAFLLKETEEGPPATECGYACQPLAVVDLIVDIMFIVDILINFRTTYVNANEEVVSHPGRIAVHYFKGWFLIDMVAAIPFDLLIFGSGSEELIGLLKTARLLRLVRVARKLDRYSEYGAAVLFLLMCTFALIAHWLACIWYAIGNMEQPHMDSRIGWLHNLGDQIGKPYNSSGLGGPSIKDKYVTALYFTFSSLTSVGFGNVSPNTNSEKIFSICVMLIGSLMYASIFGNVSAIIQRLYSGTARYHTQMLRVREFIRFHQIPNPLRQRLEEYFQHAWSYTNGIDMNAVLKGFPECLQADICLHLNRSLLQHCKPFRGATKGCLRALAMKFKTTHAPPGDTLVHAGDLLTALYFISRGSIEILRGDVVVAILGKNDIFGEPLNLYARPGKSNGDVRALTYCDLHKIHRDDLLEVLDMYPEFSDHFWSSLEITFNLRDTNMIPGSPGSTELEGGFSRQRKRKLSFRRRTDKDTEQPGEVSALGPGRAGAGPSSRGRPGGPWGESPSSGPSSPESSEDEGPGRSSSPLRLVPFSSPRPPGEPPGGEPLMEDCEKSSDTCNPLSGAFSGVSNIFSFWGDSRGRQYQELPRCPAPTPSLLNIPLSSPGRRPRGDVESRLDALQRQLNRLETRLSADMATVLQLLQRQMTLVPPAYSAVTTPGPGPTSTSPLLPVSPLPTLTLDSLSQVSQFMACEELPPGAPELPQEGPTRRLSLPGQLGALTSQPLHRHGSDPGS

Where only a bound is given, the exact number is not on record here.

The first experiment addresses Protein farnesyltransferase (Homo sapiens, UniProt P49354+P49356). As to the kind of experiment: Inhibition of human farnesyltransferase in an enzyme assay.
Conditions: not given
`N#Cc1ccc2cc1Oc1cccc(c1)CN1CC[C@@H](NCc3cncn3C2)C1=O` registered a half-inhibitory concentration (IC50) of 3.5 nM.

In the next experiment the target is Geranylgeranyl transferase type I (Homo sapiens, UniProt P49354+P53609). Description: Inhibitory activity against geranylgeranyl transferase. It counts as protein-complex assay.
Conditions: not given
`N#Cc1ccc2cc1Oc1ccc3cccc(c3c1)N1CC[C@@H](NCc3cncn3C2)C1=O` displayed an IC50 of 3.9 µM. The same measure, in the same setting: for `N#Cc1ccc2cc1Oc1cccc(c1)CN1CC[C@@H](NCc3cncn3C2)C1=O` the value was over 20 µM; for `N#Cc1ccc2cc1Oc1cccc(c1)CN1CC[C@H](NCc3cncn3C2)C1=O`, over 20 µM; for `N#Cc1ccc2cc1Oc1ccc3cccc(c3c1)N1CC[C@H](NCc3cncn3C2)C1=O`, 0.65 µM.

The next experiment addresses Voltage-gated inwardly rectifying potassium channel KCNH2 (Homo sapiens, UniProt Q12809).
Assay: not given
The note with it: IP.
With `N#Cc1ccc2cc1Oc1ccc3c(c1)[C@@H](CC3)N1CC[C@H](NCc3cncn3C2)C1=O`, it took 4.3 µM to reach half-maximal inhibition (IC50). For the compound `N#Cc1ccc2cc1Oc1ccc3c(c1)[C@H](CC3)N1CC[C@H](NCc3cncn3C2)C1=O`, the 50% inhibitory concentration (IC50) is 2.7 µM. `N#Cc1ccc2cc1Oc1ccc3c(c1)[C@@H](CC3)N1CC[C@@H](NCc3cncn3C2)C1=O` gave a concentration for half-maximal inhibition (IC50) of 0.08 µM. The same measure, in the same setting: for `N#Cc1ccc2cc1Oc1ccc3c(c1)[C@@H](CCC3)N1CC[C@H](NCc3cncn3C2)C1=O` the value was 12 µM; for `N#Cc1ccc2cc1Oc1ccc3c(c1)[C@H](CC3)N1CC[C@@H](NCc3cncn3C2)C1=O`, 4.7 µM; for `N#Cc1ccc2cc1Oc1ccc3c(c1)[C@@H](CCC3)N1CC[C@@H](NCc3cncn3C2)C1=O` [(1R,5R)-30-OXO-19-OXA-2,6,10,12-TETRAAZAHEXACYCLO[18.6.2.1^{2,5}.1^{14,18}.0^{8,12}.0^{23,27}]TRIACONTA-8,10,14(29),15,17,20(28),21,23(27)-OCTAENE-17-CARBONITRILE (STRUCTURAL MIX)], 7 µM.
